# Measurements: patent US9393221B2, “Methods and compounds for reducing intracellular lipid storage” (THE GENERAL HOSPITAL CORPORATION, priority 2011, dated 2016)
# Counter-ions that a name gives are not always drawn.
# System: ATGL-KO iPSCs
# Assay: High throughput iPSC chemical screening, Oil Red O (ORO) lipid accumulation; on Z-score: test concentration or dose not given here
# Conditions: glycolytic switch compounds
row,Compound,Rank in normalized ORO score from screen
1,Thiethylperazine malate,118

# Same assay, conditions: normalized ORO level vs DMSO-treated cells; compound present during 7 days differentiation, 96-well; negative = decrease in lipid accumulation
row,Compound,Z-score
1,C=C[C@H]1CN2CC[C@H]1C[C@H]2[C@H](O)c1ccnc2ccccc12 [(−)-Cinchonidine],−1.2185
2,c1ccc(CN(CC2=NCCN2)c2ccccc2)cc1 [Antazoline hydrochloride],−1.2181
3,CC(=O)N(CC(O)CN(C(C)=O)c1c(I)c(C(=O)NCC(O)CO)c(I)c(C(=O)NCC(O)CO)c1I)c1c(I)c(C(=O)NCC(O)CO)c(I)c(C(=O)NCC(O)CO)c1I (stereo not drawn) [Iodixanol],−1.2199
4,Pirlindole mesylate,−0.619
5,Thiethylperazine malate,−1.2229
